Assay results as given in patent US11000505B2 (priority 2010, dated 2021).
Only a part of the results on these compounds is given; other tests are left out.

Test system: pial artery
Assay: Pial artery diameter through closed cranial window (Example 1)

Substance: sodium nitroprusside
- effect on pial artery (100 pM, sub threshold concentration): had no effects on the pial artery
- dilation response in presence of L-NNA (L-NNA 1 μM (NOS inhibitor)): not affected by L-NNA
